Source: PubChem BioAssay AID430 (Sanford-Burnham Center for Chemical Genomics, 2006)
The entries are a selection whose mix differs from that of the whole data set. Measured potencies and affinities stand elsewhere. Active and inactive are the calls of the source. No stated cut-off is given here; in the data, active means cytotoxicity above about 50%; inactive means the rest.

experiment: HPDE-C7 pancreatic duct cell viability loss – fluorescence, HTS (AID 430); conditions: HPDE-C7 pancreatic duct cells viability, at 10 µM, hits give high values;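 further: cells exposed to compound for 48 hours before viability readout; 0% = vehicle and 100% = reference cytotoxic drug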

SMILES | cytotoxicity
N#CC1(Nc2ccccc2)CCN(CCc2ccccc2)CC1 | inactive: -5.9%
COc1ccc(NC2CCN(CCc3ccccc3)CC2)c(OC)c1 | inactive: 22.1%
O=C(OC1CN2CCC1CC2)C1c2ccccc2Oc2ccccc21 (stereo unspecified) | inactive: 3.9%
CCC(CO)(C(=O)OC1CN2CCC1CC2)c1ccccc1 (stereo unspecified) | inactive: -7%
CCOc1ncccc1C(=O)NCC1(N2CCOCC2)CCCCC1 | inactive: -3.4%
Fc1ccccc1NC1CCN(Cc2ccccc2)CC1 | inactive: 1.9%
